# Membrane permeability of cyclic peptides

Source: CycPeptMPDB (Li et al. 2023), which took these values from Townsend et al. 2020, doi:10.26434/chemrxiv.13335941.v1.

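Lipid, pH, incubation time, direction and concentration are not recorded in the data file. Other peptides of the study may be missing here. Peptides that the database sets to -10, its floor, are left out.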

PAMPA is the parallel artificial membrane permeability assay, which has no cells and reads passive diffusion. Permeability is given as log10 of P in cm/s; higher (less negative) is more permeable.

SMILES | PAMPA (log10 cm/s)
CC(C)C[C@@H]1NC(=O)[C@@H](C)N(C)C(=O)[C@@H]2CCCN2C(=O)[C@H](Cc2ccccc2)NC(=O)[C@H](CC(C)C)N(C)C(=O)[C@@H]2CCCN2C(=O)CN(Cc2ccccc2)C1=O | -5.77
CC(C)C[C@@H]1NC(=O)C[C@H](Cc2ccccc2)NC(=O)[C@H]2CCCN2C(=O)[C@H](Cc2ccccc2)NC(=O)[C@H](CC(C)C)N(C)C(=O)[C@H]2CCCN2C(=O)[C@@H](CC(C)C)NC1=O | -6.31
CC(C)C[C@@H]1C(=O)N[C@@H](Cc2ccccc2)C(=O)N2CCC[C@@H]2C(=O)N(C)[C@H](C)C(=O)N[C@H](CC(C)C)C(=O)N(Cc2ccccc2)CC(=O)N2CCC[C@@H]2C(=O)N1C | -6.01
CC(C)C[C@@H]1NC(=O)[C@@H]2CCCN2C(=O)[C@H](CC(C)C)NC(=O)CN(Cc2ccccc2)C(=O)[C@@H](C)N(C)C(=O)[C@H](Cc2ccccc2)NC1=O | -5.78
CC(C)C[C@@H]1C(=O)N[C@@H](Cc2ccccc2)C(=O)N2CCC[C@H]2C(=O)N[C@H](C)C(=O)N(C)[C@@H](CC(C)C)C(=O)N(Cc2ccccc2)CC(=O)N2CCC[C@H]2C(=O)N1C | -5.90
CC(C)C[C@@H]1NC(=O)[C@H](C)NC(=O)[C@H]2CCCN2C(=O)[C@H](Cc2ccccc2)NC(=O)[C@H](CC(C)C)N(C)C(=O)[C@@H]2CCCN2C(=O)CN(Cc2ccccc2)C1=O | -5.93
CC(C)C[C@@H]1NC(=O)[C@@H]2CCCN2C(=O)[C@H](CC(C)C)N(C)C(=O)[C@H](CC(C)C)NC(=O)C[C@H](Cc2ccccc2)NC(=O)[C@@H]2CCCN2C(=O)[C@H](Cc2ccccc2)NC1=O | -6.30
CC(C)C[C@@H]1NC(=O)[C@H](C)NC(=O)[C@H](Cc2ccccc2)NC(=O)[C@@H](CC(C)C)N(C)C(=O)[C@H]2CCCN2C(=O)[C@@H](CC(C)C)N(C)C1=O | -6.26
CC(C)C[C@@H]1NC(=O)[C@H](C)N(C)C(=O)[C@@H]2CCCN2C(=O)[C@H](Cc2ccccc2)NC(=O)[C@@H](CC(C)C)N(C)C(=O)[C@@H]2CCCN2C(=O)C[C@H](Cc2ccccc2)NC1=O | -5.87
CCCN1CC(=O)N(C)[C@@H](CC(C)C)C(=O)N[C@H](CC(C)C)C(=O)N2CCC[C@@H]2C(=O)N[C@@H](CC(C)C)C(=O)N[C@@H](Cc2ccccc2)C1=O | -5.22
CCCN1CC(=O)N[C@@H](CC(C)C)C(=O)N[C@H](CC(C)C)C(=O)N2CCC[C@H]2C(=O)N(Cc2ccccc2)CC(=O)N[C@@H](Cc2ccccc2)C(=O)N2CCC[C@@H]2C1=O | -5.69
CC(C)C[C@H]1NC(=O)[C@H](C)N(C)C(=O)[C@@H]2CCCN2C(=O)[C@H](Cc2ccccc2)NC(=O)CN(Cc2ccccc2)C(=O)[C@@H]2CCCN2C(=O)[C@@H](CC(C)C)NC1=O | -6.38
CC(C)C[C@@H]1NC(=O)[C@H](C)N(C)C(=O)[C@H](Cc2ccccc2)NC(=O)[C@@H](CC(C)C)NC(=O)[C@H]2CCCN2C(=O)C[C@H](Cc2ccccc2)NC1=O | -6.12
CC(C)C[C@@H]1C(=O)N[C@@H](Cc2ccccc2)CC(=O)N2CCC[C@@H]2C(=O)N[C@H](CC(C)C)C(=O)N[C@@H](Cc2ccccc2)C(=O)N(C)[C@@H](C)C(=O)N1C | -5.75
CC(C)C[C@H]1NC(=O)[C@@H](C)N(C)C(=O)[C@H](Cc2ccccc2)NC(=O)CN(Cc2ccccc2)C(=O)[C@H]2CCCN2C(=O)[C@@H](CC(C)C)NC1=O | -5.63
CC(C)C[C@@H]1C(=O)N[C@@H](Cc2ccccc2)CC(=O)N2CCC[C@H]2C(=O)N[C@H](CC(C)C)C(=O)N[C@@H](Cc2ccccc2)C(=O)N(C)[C@H](C)C(=O)N1C | -5.29
CC(C)C[C@H]1NC(=O)[C@@H]2CCCN2C(=O)C[C@H](Cc2ccccc2)NC(=O)CN(Cc2ccccc2)C(=O)C[C@H](Cc2ccccc2)NC(=O)[C@@H]2CCCN2C(=O)[C@H](Cc2ccccc2)NC1=O | -6.01
CC(C)C[C@@H]1C(=O)N(C)[C@@H](CC(C)C)C(=O)N2CCC[C@H]2C(=O)N[C@H](CC(C)C)C(=O)N[C@@H](Cc2ccccc2)C(=O)N2CCC[C@@H]2C(=O)N[C@H](C)C(=O)N1C | -6.45
CC(C)C[C@@H]1C(=O)N2CCC[C@H]2C(=O)N(C)[C@@H](CC(C)C)C(=O)N[C@@H](Cc2ccccc2)C(=O)N[C@H](C)C(=O)N(C)[C@H](CC(C)C)C(=O)N1C | -5.35
CC(C)C[C@@H]1C(=O)N[C@@H](Cc2ccccc2)C(=O)N2CCC[C@H]2C(=O)N(C)[C@@H](C)C(=O)N(C)[C@@H](CC(C)C)C(=O)N[C@@H](Cc2ccccc2)CC(=O)N2CCC[C@@H]2C(=O)N1C | -5.23
CC(C)C[C@@H]1C(=O)N[C@@H](Cc2ccccc2)C(=O)N2CCC[C@H]2C(=O)N[C@H](C)C(=O)N(C)[C@@H](CC(C)C)C(=O)N[C@H](CC(C)C)C(=O)N2CCC[C@H]2C(=O)N1C | -5.68
CC(C)C[C@@H]1C(=O)N(Cc2ccccc2)CC(=O)N2CCC[C@H]2C(=O)N[C@H](CC(C)C)C(=O)N[C@@H](Cc2ccccc2)C(=O)N2CCC[C@H]2C(=O)N(C)[C@@H](C)C(=O)N1C | -6.36